{"source": "patent US11852634B2", "about": "“Use of AKT phosphorylation as a biomarker for prognosing neurodegenerative diseases and treating same” (Yeda Research and Development Co. Ltd., priority 2011, dated 2023)", "origin": "cited, not measured here", "tested_on": "ALS", "conditions": "ALS patients, estimated; cited from earlier work", "data": [{"smiles": "Nc1nc2ccc(OC(F)(F)F)cc2s1", "note": "[Riluzole]", "values": [{"measurement": "Extension in patient survival", "value": "three"}]}]}
